Values quoted from earlier work in US7928189B2, “PCSK9 polypeptide fragment” (Ottawa Health Research Institute, priority 2008, dated 2011).

Molecular target: LDLR EGF-A domain (Homo sapiens, UniProt P01130)
Settings: EGF-A domain of LDLR; cited from earlier work

D374Y: 'gain of function' variation in the catalytic domain of PCSK9
binding to LDLR at the cell surface relative to wild type PCSK9: 25 ×
